## Yeast mating assay 2: variants of the scFv Ab-91

Target peptide (SARS-CoV-2 spike, HR2 region): PDVDLGDISGINAS

Each scFv is VL, the linker GGGGSGGGGSGGGGS, VH, as in the parent Ab-91, and differs from it in the CDRs of the heavy chain only.
VL: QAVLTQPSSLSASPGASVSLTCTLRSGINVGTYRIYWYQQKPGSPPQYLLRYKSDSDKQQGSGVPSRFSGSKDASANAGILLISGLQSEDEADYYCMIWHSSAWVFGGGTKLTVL
VH: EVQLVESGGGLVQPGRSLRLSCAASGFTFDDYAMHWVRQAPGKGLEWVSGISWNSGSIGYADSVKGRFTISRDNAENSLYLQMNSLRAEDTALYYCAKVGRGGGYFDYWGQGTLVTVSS

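Phage display of a naive human antibody library on the peptide gave the parent. The library (AAYL51) carries one to three amino acid substitutions per variant, with no insertions or deletions. In AlphaSeq, yeast of one mating type display the scFv and yeast of the other type display the target. Binding brings cells together so that they mate, and sequencing counts the barcode pairs among the diploids. Read counts were normalised to the haploid input and turned into Kd by a linear fit to BCL2-family pairs of known affinity, for each replicate. Each pool was mated in three replicate cultures.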

Each variant is given by its three heavy chain CDRs, as the data file delimits them; those of the parent are GFTFDDYAMH, GISWNSGSIGYADSVK, VGRGGGYFDY.
This list gathers variants with a substitution at F27 (VH, numbered from residue 1).
Kd is apparent (estimated from mating counts) and averaged on the log scale over replicates with a signal. Smaller is tighter.
A pair that was not seen in any replicate is written "nd"; this usually means weak binding, but a binder can also be missed.
For reference, the parent read 72 nM as the reference entry and 7.5 nM as a member of this library.
Empty control strains, which show no peptide, gave a signal in 21% of pairings with library AAYL51; the median was 34 µM and 95% of these signals were weaker than 1.8 µM. No background was subtracted. Also given: how often the same scFv was detected with the empty control strains.

- GHTFDDYAMH, FISWNSGSIGYADSVK, VCRGGGYFDY: 54 µM (2 of 3 replicates; controls 2 of 9)
- GATFDDYAMH, GISWNSGSIGYADSVK, DGRGGGYFDY: nd (0 of 3 replicates; controls 2 of 9)
- GDTFDDYAMH, GIWWNSGSICYADSVK, VGRGGGYFDY: 5.9 µM (2 of 3 replicates; controls 3 of 9)
- GATFDDYAMH, GISWNSGSIGYADSVK, VKRGGGYFDS: 42 µM (3 of 3 replicates; controls 6 of 9)
- GPTTDDYAMH, GISWNSGSIGYADSVK, VGRGGGYMDY: 2.3 mM (1 of 3 replicates; controls 4 of 9)
- GCTFDDYAMH, GISWNSGSIGYADASK, VGRGGGYFDY: nd (0 of 3 replicates; controls 0 of 9)
- GNTCDDYAMH, GISWNSGSIGYADSVM, VGRGGGYFDY: 100 µM (2 of 3 replicates; controls 4 of 9)
- GMTFDDYDMH, GISWNSGSIGYADSVK, CGRGGGYFDY: nd (0 of 3 replicates; controls 0 of 9)
- GLTFDDYAMH, GISWNSGSIGYADSVK, VGRGGGYFDY: 3.1 µM (3 of 3 replicates; controls 3 of 9)
- GHTFDDYAMH, GISWNSGSIGYAYSVK, VGRGGGYFDY: nd (0 of 3 replicates; controls 0 of 9)
- GWTFDDYAMH, GISWNSGSIDYADSKK, VGRGGGYFDY: 52 µM (1 of 3 replicates; controls 1 of 9)
- GTTFDDYAMH, GISWNSGSIGYACSVK, VGRTGGYFDY: nd (0 of 3 replicates; controls 2 of 9)
- GGTFDDYAMH, GISWNSGSIGYADSVK, VGRGGGYTDY: 2.4 mM (1 of 3 replicates; controls 4 of 9)
- GHTFDDIAMH, GISWNSGSIGYADSVK, VMRGGGYFDY: 46 µM (1 of 3 replicates; controls 2 of 9)
- GVTFDDYRMH, GISWNSGSIGYADEVK, VGRGGGYFDY: 46 µM (2 of 3 replicates; controls 0 of 9)
- GATFDDYAMR, GISWNIGSIGYADSVK, VGRGGGYFDY: 120 µM (2 of 3 replicates; controls 4 of 9)
- GMTFDDYAMH, GISWNSGSIGYADSVK, VGRGGAYFDK: 610 µM (3 of 3 replicates; controls 4 of 9)
- GWAFDDYAMH, GISWNSGSIGYADSVK, VGEGGGYFDY: nd (0 of 3 replicates; controls 1 of 9)
- GCTFDDYAMH, GISWNSGSIGYNDSVK, VGRGGGYFRY: nd (0 of 3 replicates; controls 1 of 9)
- GLTFDDYAMH, GISWNSGSIGYADSVE, VGRGGGYNDY: nd (0 of 3 replicates; controls 0 of 9)
- GCTFDDYAQH, GISWNSGSINYADSVK, VGRGGGYFDY: 370 µM (1 of 3 replicates; controls 8 of 9)
- GCTFDDYAMH, FISWNSGTIGYADSVK, VGRGGGYFDY: nd (0 of 3 replicates; controls 1 of 9)
- GMTFDDYAMH, GISSNSGSKGYADSVK, VGRGGGYFDY: nd (0 of 3 replicates; controls 0 of 9)
- GKTFDDYAMH, DKSWNSGSIGYADSVK, VGRGGGYFDY: 130 µM (1 of 3 replicates; controls 4 of 9)
- GKTFDDYAMH, GISWNSGSWGYADSVK, VGRGGGVFDY: 12 µM (1 of 3 replicates; controls 0 of 9)
- GATFDDYAMH, VISWNSGSIGNADSVK, VGRGGGYFDY: nd (0 of 3 replicates; controls 1 of 9)
- GATFDDNAMH, GISWNSGSIGYADSVK, VGRGMGYFDY: nd (0 of 3 replicates; controls 2 of 9)
- GTTFDWYAMH, GISWNSGSIDYADSVK, VGRGGGYFDY: nd (0 of 3 replicates; controls 0 of 9)
- FVTFDDYAMH, GISWNSGSIGYADSVK, VGRGGEYFDY: 450 nM (1 of 3 replicates; controls 0 of 9)
- GVTIDDYAMH, GISWPSGSIGYADSVK, VGRGGGYFDY: nd (0 of 3 replicates; controls 2 of 9)
- GMTFDDYAMH, GISWNSISIGYADPVK, VGRGGGYFDY: 10 µM (3 of 3 replicates; controls 3 of 9)
- GMTFDDYAMH, GISWNSGSGGYADSVK, VGRGGGYFDW: 34 µM (2 of 3 replicates; controls 1 of 9)
- GTTFIDYAMH, GISWNSGSIGYADSVK, VGRGGGPFDY: 200 µM (2 of 3 replicates; controls 1 of 9)
- LATFDDYAMH, GISWNSGSEGYADSVK, VGRGGGYFDY: nd (0 of 3 replicates; controls 0 of 9)
- GMTFDDYAMH, GISWNSGSIGYADSVK, VGRFGNYFDY: 4.5 µM (1 of 3 replicates; controls 3 of 9)
- GATFDDYAMH, WISWNSGDIGYADSVK, VGRGGGYFDY: nd (0 of 3 replicates; controls 1 of 9)
- GRTFDDYAMH, GISWNSPSIAYADSVK, VGRGGGYFDY: nd (0 of 3 replicates; controls 1 of 9)
- GLTFDDYMMH, GISRNSGSIGYADSVK, VGRGGGYFDY: 790 µM (2 of 3 replicates; controls 5 of 9)
- GRGFDDYAMH, GISWNSGSIGYADSVK, VGRGGHYFDY: 3.5 µM (3 of 3 replicates; controls 6 of 9)
- GGTWDDYAMH, GISWNSGSIGPADSVK, VGRGGGYFDY: 110 µM (3 of 3 replicates; controls 8 of 9)
- GITFDDYAMH, GISWNSGSIGYADSGK, VQRGGGYFDY: 18 µM (1 of 3 replicates; controls 1 of 9)
- GSTFDDYAMH, GISWNTGSIGYADSVK, VGRGGGYFMY: nd (0 of 3 replicates; controls 4 of 9)
- GITFDDYAMG, GISWNFGSIGYADSVK, VGRGGGYFDY: 39 µM (2 of 3 replicates; controls 4 of 9)
- GSTFDDYAMH, GISWNSGKIGNADSVK, VGRGGGYFDY: nd (0 of 3 replicates; controls 2 of 9)
- GITFDDYAMH, GISWNSGSIGYADSVN, VGRWGGYFDY: nd (0 of 3 replicates; controls 2 of 9)
- GVTFADYAMH, GISWNSGSIGYEDSVK, VGRGGGYFDY: 100 nM (3 of 3 replicates; controls 1 of 9)
- GVTFDDYAMH, GIMWNSGSIGYADSVK, VGRGMGYFDY: 320 µM (2 of 3 replicates; controls 6 of 9)
- GTTFDDYAMH, GISWNSESIGYADSVK, VGRGCGYFDY: 5.7 µM (3 of 3 replicates; controls 0 of 9)
- GETFDDYAMH, GISWVSGSIGYAWSVK, VGRGGGYFDY: 900 µM (1 of 3 replicates; controls 1 of 9)

Excerpt, the final 6 entries:

* GSTFDDYAMH, GISWNSGKIGNADSVK, VGRGGGYFDY -> nd (0 of 3 replicates; controls 2 of 9)
* GITFDDYAMH, GISWNSGSIGYADSVN, VGRWGGYFDY -> nd (0 of 3 replicates; controls 2 of 9)
* GVTFADYAMH, GISWNSGSIGYEDSVK, VGRGGGYFDY -> 100 nM (3 of 3 replicates; controls 1 of 9)
* GVTFDDYAMH, GIMWNSGSIGYADSVK, VGRGMGYFDY -> 320 µM (2 of 3 replicates; controls 6 of 9)
* GTTFDDYAMH, GISWNSESIGYADSVK, VGRGCGYFDY -> 5.7 µM (3 of 3 replicates; controls 0 of 9)
* GETFDDYAMH, GISWVSGSIGYAWSVK, VGRGGGYFDY -> 900 µM (1 of 3 replicates; controls 1 of 9)

Reference: Engelhart et al. 2022, doi:10.1038/s41597-022-01779-4. File: FLAb, binding data.